Assay results published in PMC5058426 (Journal of porphyrins and phthalocyanines, 2016).

Molecular target: EGFR extracellular domain (Homo sapiens, UniProt P00533)
Test: SPR binding to immobilized EGFR
Details: SPR sensorgram, 400 to 500 s, 100 μM

Substance: LARLLT [Compound 7]
- dissociation rate from EGFR: slower dissociation rates
